pIC50: −log10 of the molar value.
Experiments:
Sialidase-4 [1] = target: T1, Sialidase-4 (Homo sapiens, UniProt Q8WWR8); experiment: Inhibition of human Neu4 expressed in HEK293T cells using 4MU-Neu5Ac as substrate incubated for 30 mins by HPLC analysis; type: cell-based, HEK-293T
T1 sequence (Q8WWR8 whole entry): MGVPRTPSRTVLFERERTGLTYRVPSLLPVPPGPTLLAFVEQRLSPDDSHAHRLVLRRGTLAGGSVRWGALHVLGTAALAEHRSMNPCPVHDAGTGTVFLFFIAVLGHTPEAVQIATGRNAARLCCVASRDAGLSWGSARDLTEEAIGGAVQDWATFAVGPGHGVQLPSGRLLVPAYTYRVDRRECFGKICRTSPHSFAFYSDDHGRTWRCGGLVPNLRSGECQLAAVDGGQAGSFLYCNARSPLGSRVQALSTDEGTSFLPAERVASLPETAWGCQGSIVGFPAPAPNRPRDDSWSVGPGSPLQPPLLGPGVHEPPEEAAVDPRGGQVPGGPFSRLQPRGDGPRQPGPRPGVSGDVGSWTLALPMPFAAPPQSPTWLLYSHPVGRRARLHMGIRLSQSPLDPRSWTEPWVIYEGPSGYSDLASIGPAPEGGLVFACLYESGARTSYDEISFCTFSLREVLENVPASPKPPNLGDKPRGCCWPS

Sialidase-4 [2] = target: T1, Sialidase-4; experiment: Inhibition of human Neu4 expressed in HEK293T cells using GM3 as substrate incubated for 30 mins by HPLC analysis; type: cell-based, HEK-293T

Row | SMILES | pIC50 (Sialidase-4 [1]) | pIC50 (Sialidase-4 [2])
1 | CC(=O)N[C@H]1[C@H]([C@H](O)[C@H](O)CO)OC(C(=O)O)=C[C@@H]1O [NEU5AC2EN] | 4.30 | 4.30
2 | CC(=O)N[C@H]1[C@H]([C@H](O)[C@H](O)CO)OC(C(=O)O)=C[C@@H]1N=C(N)N [ZANAMIVIR] | 3.41 | 2.98

Source: ChEMBL document CHEMBL3817735 (J Med Chem, 2016)
